Test system: CD8+ cells
Assay: HLA-A2 tetramer staining of CD8+ cells after in vitro stimulation with peptide or Adeno/ESO
Format: cell-based, human
Conditions: vaccinated with S9C and S11L, T cells stimulated in vitro with the labelled agent
Method: See Gnjatic, et al., supra, incorporated by reference, for information on the transfection of cells with this construct. Autologous PBLs depleted of CD8^+ cells were infected with the adenoviral constructs, at 100 IU/cell, overnight, at 37° C. in 250 μl serum free medium, and processed further, as described supra.
The results of these studies are summarized in the tables which follow, using exemplary patients vaccinated or not vaccinated with SEQ ID NO: 1 or 2.
Adeno/ESO represents the adenoviral construct expressing the complete NY-ESO-1 antigen. T cells were stimulated in vitro with autologous pBMCs, either pulsed with the indicated peptide, or which had been transduced with Adeno/ESO.

[1] = Patient NW866: no pre-existing immunity
[2] = Patient NW924: pre-existing immunity

Sequence	L9L-tetramet [1]	S9C-tetramer [1]	S11L-tetramer [1]	L9L-tetramet [2]	S9C-tetramer [2]	S11L-tetramer [2]
SLLMWITQCFL (H. sapiens) [SEQ ID NO: 2]	3.98%	0.06%	0.03%	5.59%	5.88%	0.13%
LMWITQCFL (H. sapiens) [SEQ ID NO: 3]						0.02%

— patent US7259235B2, “Method for generating an immune response and reagents therefor” (Ludwig Institute for Cancer Research, priority 2002, dated 2007)
